Measured values published in ChEMBL document CHEMBL5316271, “Microtubule-Stabilizing 1,2,4-Triazolo[1,5-a]pyrimidines as Candidate Therapeutics for Neurodegenerative Disease: Matched Molecular Pair Analyses and Computational Studies Reveal New Structure-Activity Insights” (J Med Chem, 2023).

Chains of the proteins cited; added tags and fusions are not shown. Lines headed by an entry give the natural chain unless they say otherwise; changes in a name come on top.
UniProt P68371: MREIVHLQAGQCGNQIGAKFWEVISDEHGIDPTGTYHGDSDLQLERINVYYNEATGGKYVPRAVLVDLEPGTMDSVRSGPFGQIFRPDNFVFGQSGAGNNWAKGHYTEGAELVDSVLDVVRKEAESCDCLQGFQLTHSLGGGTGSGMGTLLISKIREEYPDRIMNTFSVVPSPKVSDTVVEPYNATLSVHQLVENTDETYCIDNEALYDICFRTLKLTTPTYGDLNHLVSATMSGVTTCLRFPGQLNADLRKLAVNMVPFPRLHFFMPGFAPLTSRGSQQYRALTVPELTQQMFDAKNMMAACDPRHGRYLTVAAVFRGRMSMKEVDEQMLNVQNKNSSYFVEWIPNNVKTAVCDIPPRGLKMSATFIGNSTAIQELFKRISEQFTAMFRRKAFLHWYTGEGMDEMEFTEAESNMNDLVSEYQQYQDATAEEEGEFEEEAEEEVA
UniProt Q9H4B7: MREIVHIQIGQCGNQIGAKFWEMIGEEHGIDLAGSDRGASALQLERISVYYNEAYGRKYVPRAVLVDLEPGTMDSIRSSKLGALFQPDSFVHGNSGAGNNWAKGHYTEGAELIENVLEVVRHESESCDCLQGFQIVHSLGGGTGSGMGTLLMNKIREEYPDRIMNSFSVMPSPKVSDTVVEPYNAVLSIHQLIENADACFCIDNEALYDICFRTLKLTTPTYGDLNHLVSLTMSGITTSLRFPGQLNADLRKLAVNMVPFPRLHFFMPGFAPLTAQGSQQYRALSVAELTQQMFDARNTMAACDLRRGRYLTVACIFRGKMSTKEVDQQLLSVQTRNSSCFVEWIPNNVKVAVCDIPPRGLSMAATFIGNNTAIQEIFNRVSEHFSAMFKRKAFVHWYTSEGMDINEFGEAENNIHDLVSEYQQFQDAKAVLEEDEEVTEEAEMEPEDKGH
UniProt P0DPH7: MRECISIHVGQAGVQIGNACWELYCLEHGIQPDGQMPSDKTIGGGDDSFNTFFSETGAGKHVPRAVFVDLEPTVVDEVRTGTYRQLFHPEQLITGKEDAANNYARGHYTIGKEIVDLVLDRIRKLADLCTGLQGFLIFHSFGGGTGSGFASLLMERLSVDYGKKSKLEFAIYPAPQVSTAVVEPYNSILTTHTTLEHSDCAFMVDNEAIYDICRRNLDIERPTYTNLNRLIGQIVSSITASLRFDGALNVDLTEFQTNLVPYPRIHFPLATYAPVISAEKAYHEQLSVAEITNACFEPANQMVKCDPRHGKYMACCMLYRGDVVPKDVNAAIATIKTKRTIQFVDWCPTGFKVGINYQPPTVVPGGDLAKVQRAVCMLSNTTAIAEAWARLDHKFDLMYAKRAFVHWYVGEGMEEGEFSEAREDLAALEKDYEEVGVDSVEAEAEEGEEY
UniProt Q13509: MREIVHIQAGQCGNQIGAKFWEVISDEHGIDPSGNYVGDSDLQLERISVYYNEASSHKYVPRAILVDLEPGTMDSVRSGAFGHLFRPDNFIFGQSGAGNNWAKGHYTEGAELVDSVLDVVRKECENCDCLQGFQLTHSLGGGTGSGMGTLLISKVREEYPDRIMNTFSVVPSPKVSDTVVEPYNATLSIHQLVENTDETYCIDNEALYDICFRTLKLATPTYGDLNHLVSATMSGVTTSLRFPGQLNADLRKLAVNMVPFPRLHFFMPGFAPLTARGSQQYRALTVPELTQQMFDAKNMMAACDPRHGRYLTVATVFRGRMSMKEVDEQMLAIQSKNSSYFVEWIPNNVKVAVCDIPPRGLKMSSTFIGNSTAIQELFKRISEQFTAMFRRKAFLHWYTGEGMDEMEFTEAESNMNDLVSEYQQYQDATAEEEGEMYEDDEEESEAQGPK
UniProt Q71U36: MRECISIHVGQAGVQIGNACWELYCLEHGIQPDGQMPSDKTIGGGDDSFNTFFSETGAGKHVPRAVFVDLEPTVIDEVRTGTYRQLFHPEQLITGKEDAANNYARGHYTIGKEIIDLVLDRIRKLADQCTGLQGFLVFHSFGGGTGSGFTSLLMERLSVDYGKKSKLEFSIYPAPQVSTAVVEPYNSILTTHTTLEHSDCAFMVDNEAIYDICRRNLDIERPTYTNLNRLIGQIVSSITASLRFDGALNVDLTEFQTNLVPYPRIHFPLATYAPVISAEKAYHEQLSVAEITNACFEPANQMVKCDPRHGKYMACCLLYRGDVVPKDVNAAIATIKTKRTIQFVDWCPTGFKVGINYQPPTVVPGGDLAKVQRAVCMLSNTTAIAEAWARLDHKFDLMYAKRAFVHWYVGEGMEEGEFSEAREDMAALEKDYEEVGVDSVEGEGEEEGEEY
UniProt P04350: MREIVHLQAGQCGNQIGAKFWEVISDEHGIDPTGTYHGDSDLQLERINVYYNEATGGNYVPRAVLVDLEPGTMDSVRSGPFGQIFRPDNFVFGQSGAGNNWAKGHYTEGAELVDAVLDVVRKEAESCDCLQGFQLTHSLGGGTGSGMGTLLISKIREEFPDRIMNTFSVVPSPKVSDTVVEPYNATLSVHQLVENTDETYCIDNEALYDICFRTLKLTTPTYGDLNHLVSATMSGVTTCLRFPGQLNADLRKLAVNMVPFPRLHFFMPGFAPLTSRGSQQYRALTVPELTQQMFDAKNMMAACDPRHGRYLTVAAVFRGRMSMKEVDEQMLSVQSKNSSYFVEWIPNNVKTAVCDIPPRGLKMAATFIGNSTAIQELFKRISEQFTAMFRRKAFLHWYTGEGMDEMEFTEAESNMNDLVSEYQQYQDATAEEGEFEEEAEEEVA
UniProt Q3ZCM7: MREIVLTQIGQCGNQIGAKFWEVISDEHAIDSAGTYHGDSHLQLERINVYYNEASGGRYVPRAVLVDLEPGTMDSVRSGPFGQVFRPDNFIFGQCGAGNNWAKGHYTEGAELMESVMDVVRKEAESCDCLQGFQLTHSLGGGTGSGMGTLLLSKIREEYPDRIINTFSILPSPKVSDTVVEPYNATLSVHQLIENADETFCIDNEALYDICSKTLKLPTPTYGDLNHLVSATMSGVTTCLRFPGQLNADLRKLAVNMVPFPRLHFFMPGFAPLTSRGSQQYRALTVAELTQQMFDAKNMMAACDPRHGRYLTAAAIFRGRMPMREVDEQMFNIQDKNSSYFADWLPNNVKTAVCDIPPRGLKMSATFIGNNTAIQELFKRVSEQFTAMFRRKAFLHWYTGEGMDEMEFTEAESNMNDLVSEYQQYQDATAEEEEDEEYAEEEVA
UniProt P07437: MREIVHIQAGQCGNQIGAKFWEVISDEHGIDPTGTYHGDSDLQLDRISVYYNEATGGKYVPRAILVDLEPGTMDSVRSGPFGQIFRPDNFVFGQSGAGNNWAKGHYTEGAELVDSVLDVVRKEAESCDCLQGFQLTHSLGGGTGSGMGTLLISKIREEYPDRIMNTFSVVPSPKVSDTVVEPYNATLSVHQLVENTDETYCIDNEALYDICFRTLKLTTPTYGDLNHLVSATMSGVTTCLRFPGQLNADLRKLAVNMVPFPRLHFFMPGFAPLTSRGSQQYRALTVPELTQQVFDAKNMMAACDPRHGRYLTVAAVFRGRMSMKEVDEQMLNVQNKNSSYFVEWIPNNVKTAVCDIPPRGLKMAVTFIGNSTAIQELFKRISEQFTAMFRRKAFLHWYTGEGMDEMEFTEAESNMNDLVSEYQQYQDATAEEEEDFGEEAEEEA
UniProt P68363: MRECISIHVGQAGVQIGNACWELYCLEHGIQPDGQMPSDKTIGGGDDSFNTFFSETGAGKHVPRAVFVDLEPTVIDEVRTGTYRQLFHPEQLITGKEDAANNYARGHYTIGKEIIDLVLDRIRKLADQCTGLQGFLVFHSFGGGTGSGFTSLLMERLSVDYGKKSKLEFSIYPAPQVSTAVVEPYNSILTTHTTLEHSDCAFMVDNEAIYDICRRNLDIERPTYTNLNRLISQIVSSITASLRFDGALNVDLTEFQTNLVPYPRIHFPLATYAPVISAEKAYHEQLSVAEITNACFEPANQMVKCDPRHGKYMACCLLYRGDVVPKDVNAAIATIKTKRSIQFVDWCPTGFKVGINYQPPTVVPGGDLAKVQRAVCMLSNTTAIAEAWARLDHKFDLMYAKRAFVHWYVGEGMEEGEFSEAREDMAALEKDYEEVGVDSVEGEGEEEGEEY
UniProt Q9BQE3: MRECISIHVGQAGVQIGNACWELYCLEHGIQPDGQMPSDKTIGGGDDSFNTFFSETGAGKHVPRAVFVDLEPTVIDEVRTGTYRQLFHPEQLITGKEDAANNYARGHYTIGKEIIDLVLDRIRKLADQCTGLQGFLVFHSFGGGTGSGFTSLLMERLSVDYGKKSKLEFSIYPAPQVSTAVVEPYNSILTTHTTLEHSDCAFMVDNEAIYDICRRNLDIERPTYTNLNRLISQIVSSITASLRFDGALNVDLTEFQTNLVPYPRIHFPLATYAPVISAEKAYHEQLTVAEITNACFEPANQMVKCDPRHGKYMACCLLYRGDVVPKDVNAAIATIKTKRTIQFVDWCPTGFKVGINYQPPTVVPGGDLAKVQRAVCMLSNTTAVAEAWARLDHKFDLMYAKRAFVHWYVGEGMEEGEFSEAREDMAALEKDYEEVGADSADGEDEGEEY
UniProt Q6PEY2: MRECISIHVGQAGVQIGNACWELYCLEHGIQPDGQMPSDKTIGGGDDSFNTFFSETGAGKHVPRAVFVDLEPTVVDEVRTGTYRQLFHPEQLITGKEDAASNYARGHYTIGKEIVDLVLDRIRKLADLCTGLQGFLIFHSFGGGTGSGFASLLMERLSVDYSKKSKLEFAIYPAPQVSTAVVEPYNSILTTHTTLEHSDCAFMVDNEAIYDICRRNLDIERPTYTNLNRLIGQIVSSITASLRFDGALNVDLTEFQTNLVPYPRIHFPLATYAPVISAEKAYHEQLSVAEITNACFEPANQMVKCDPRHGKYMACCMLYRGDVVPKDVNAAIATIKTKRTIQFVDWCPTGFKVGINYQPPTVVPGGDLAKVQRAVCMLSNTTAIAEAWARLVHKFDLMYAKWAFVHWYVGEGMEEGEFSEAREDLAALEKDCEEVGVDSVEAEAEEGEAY
UniProt Q13885: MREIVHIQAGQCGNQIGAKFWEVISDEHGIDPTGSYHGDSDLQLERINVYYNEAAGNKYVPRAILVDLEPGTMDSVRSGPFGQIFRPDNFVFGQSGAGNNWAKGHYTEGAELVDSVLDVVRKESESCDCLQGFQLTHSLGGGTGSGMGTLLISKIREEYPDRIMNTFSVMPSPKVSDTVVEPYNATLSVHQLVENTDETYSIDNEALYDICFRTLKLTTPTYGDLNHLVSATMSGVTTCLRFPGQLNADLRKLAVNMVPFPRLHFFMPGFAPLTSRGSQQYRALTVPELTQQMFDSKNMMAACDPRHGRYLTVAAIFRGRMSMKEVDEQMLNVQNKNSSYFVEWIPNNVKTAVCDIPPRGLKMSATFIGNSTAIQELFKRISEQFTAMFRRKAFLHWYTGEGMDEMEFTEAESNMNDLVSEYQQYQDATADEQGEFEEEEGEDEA
UniProt Q9BVA1: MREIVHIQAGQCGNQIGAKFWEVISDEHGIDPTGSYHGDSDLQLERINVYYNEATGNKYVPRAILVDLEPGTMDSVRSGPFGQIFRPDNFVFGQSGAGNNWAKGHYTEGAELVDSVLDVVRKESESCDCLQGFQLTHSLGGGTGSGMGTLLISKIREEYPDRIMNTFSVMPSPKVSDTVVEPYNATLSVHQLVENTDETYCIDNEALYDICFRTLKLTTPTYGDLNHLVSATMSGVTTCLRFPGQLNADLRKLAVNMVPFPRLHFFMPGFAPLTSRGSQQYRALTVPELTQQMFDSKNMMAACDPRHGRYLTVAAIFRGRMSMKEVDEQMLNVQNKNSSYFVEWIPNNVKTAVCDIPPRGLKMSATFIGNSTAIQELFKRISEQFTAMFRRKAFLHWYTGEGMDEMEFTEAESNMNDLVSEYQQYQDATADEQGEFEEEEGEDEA
UniProt Q9BUF5: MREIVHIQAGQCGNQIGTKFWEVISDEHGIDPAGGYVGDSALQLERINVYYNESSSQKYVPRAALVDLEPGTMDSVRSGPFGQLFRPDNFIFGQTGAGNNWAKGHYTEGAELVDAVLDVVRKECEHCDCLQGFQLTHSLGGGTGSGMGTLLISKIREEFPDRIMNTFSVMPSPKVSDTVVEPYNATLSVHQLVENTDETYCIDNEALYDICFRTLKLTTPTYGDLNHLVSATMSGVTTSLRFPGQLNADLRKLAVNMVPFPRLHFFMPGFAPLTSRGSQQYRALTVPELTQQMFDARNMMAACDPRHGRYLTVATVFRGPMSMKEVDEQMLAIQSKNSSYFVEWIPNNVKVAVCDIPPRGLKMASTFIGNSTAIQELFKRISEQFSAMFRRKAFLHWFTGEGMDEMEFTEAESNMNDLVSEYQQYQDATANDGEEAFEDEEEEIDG

Tests used:
Type in all cases: cell-based
Tubulin (Homo sapiens) [1] = molecular target: T1, Tubulin (Homo sapiens) (UniProt P68371+Q9H4B7+P0DPH7+P68366+Q13509+Q71U36+P04350+Q3ZCM7+P07437+P68363+Q9BQE3+Q6PEY2+Q13885+Q9BVA1+Q9BUF5); test: Induction of microtubule stabilization in human HEK293-A cells assessed as fold change in total alpha-tubulin level reduction at 30 uM incubated for 4 hrs by ELISA relative to control
Tubulin (Homo sapiens) [2] = molecular target: T1, Tubulin (Homo sapiens); test: Induction of microtubule stabilization in human HEK293-A cells assessed as fold change in cellular acetylated alpha-tubulin level at 30 uM incubated for 4 hrs by ELISA relative to cevipabulin
Tubulin (Homo sapiens) [3] = molecular target: T1, Tubulin (Homo sapiens); test: Induction of microtubule stabilization in human HEK293-A cells assessed as fold change as increase in cellular acetylated alpha-tubulin level at 30 uM incubated for 4 hrs by ELISA relative to control

fold change (FC) (Tubulin (Homo sapiens) [1]): 1.22
fold change (FC) (Tubulin (Homo sapiens) [2]): 0.55
fold change (FC) (Tubulin (Homo sapiens) [3]): 4.29
Compound: C[C@H](Nc1c(-c2c(F)cc(F)cc2F)c(Cl)nc2ncnn12)C(C)(C)C
